Data taken from PMC6104608, “Design, synthesis, and evaluation of curcumin analogues as potential inhibitors of bacterial sialidase” (Journal of Enzyme Inhibition and Medicinal Chemistry, 2018).

Chains of the proteins cited; added tags and fusions are not shown. Residues count along the entry.
UniProt P62575, 319-822 limits assumed: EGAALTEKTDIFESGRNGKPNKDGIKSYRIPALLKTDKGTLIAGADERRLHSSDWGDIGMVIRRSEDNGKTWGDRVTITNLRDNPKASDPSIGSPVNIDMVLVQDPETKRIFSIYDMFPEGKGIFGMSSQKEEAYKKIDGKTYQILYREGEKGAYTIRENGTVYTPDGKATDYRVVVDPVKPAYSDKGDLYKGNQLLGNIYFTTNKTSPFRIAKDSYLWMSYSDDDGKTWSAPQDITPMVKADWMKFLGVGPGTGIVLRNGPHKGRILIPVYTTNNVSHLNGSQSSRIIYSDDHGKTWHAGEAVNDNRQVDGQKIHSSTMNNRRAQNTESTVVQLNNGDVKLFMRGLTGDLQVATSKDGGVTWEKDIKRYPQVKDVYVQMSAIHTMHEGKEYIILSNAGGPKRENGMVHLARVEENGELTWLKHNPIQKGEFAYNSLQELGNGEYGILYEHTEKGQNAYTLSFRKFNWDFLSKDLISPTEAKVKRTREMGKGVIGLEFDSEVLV

Target: T1, S. pneumoniae Nan A (Streptococcus pneumoniae, UniProt P62575)
T1 construct: 6x His-tag (C); made in house; host or cells: E. coli BL21 (DE3)
Assay: Fluorescence-based inhibition assay of S. pneumoniae Nan A with MUNANA substrate
Assay type: biochemical
Conditions: control used to confirm hydrolytic activity of Nan A; value printed with citation [12]; read-out: IC50 of DANA, S. pneumoniae sialidase inhibition

Structure (SMILES): CC(=O)N[C@H]1[C@H]([C@H](O)[C@H](O)CO)OC(C(=O)O)=C[C@@H]1O [DANA, reference compound]
- IC50: 4.8 ± 1.1 µM
